# Membrane permeability of cyclic peptides

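Conditions beyond the assay type are not listed; see the original paper. The list need not hold all peptides of the study. Entries at the database's floor value (log10 P of -10) are not listed.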

MDCK: transport across canine kidney epithelial cells.
Permeability is in 10^-6 cm/s, converted from the database's log10 values; higher is more permeable.

Listed for CC(C)C[C@@H]1NC(=O)[C@H](CC(C)C)NC(=O)[C@@H](CC(C)C)NC(=O)[C@H](Cc2ccccc2)NC(=O)[C@@H]2CCCN2C(=O)[C@@H](Cc2ccccc2)NC1=O: MDCK 39 × 10^-6 cm/s. Listed for CC[C@H](C)[C@@H]1NC(=O)[C@H](CC(C)C)NC(=O)[C@H](CC(C)C)NC(=O)[C@@H]2CCCN2C(=O)[C@H](Cc2ccccc2)NC(=O)[C@H](CC(C)C)NC1=O: MDCK 40 × 10^-6 cm/s. CC(C)C[C@@H]1NC(=O)[C@H](CC(C)C)NC(=O)[C@@H](CC(C)C)NC(=O)[C@H](CC(C)C)NC(=O)[C@@H]2CCCN2C(=O)[C@@H](Cc2ccccc2)NC1=O has MDCK 33 × 10^-6 cm/s. Listed for CC(C)C[C@@H]1NC(=O)[C@H](CC(C)C)NC(=O)[C@@H](CC(C)C)NC(=O)[C@H](CC(C)C)NC(=O)[C@H]2CCCN2C(=O)[C@@H](Cc2ccccc2)NC1=O: MDCK 7.9 × 10^-6 cm/s. For CC(C)C[C@@H]1NC(=O)[C@H](CC(C)C)NC(=O)[C@@H](CC(C)C)NC(=O)[C@H](Cc2ccccc2)NC(=O)[C@H]2CCCN2C(=O)[C@@H](Cc2ccccc2)NC1=O the data give MDCK 11 × 10^-6 cm/s. For CC[C@H](C)[C@@H]1NC(=O)[C@H](CC(C)C)NC(=O)[C@H](CC(C)C)NC(=O)[C@H]2CCCN2C(=O)[C@H](Cc2ccccc2)NC(=O)[C@H](CC(C)C)NC1=O the data give MDCK 15 × 10^-6 cm/s.

Source: CycPeptMPDB (Li et al. 2023), which took these values from Schwochert et al. 2016, doi:10.1021/acsmedchemlett.6b00100.